Experimental data taken from paper PMC13156300 (Nature Communications, 2026).

Biological target: T1, LRRC58-EloB/C complex (human | , UniProt Q96CX6 1-371; Q15370 1-118; Q15369 1-112)
T1 construct: LRRC58, BC-box substrate receptor; Elongin B (EloB), untagged; Elongin C (EloC), untagged; also called LRRC58 with Elongin B and Elongin C; source: Trichoplusia ni High Five insect cells, coexpressed, purified (Strep-Tactin, 3C cleavage, anion exchange, SEC); not shown: TwinStrep, N-terminal, cleaved; copies: + +
Assay: SEC; purified CDO1 mixed with LRRC58-EloB/C, and further with CUL2-RBX1 or CUL5-RBX2; co-migration by size-exclusion chromatography
Settings: both partners purified

B1: cysteine dioxygenase type 1 (CDO1), wild type (enzyme, human, UniProt Q16878 1-200, looked up)
chain: MEQTEVLKPRTLADLIRILHQLFAGDEVNVEEVQAIMEAYESDPTEWAMYAKFDQYRYTRNLVDQGNGKFNLMILCWGEGHGSSIHDHTNSHCFLKMLQGNLKETLFAWPDKKSNEMVKKSERVLRENQCAYINDSIGLHRVENISHTEPAVSLHLYSPPFDTCHAFDQRTGHKNKVTMTFHSKFGIRTPNATSGSLENN
notes: cysteine dioxygenase type 1 (CDO1), wild type; also called WT CDO1; Cy5-CDO1
**Q.** Does B1 bind?
**A.** binds
